This is an account of results in ChEMBL document CHEMBL4033683, “Dual functional small molecule fluorescent probes for image-guided estrogen receptor-specific targeting coupled potent antiproliferative potency for breast cancer therapy” (Bioorg Med Chem, 2017).

Chains of the proteins cited; added tags and fusions are not shown.
UniProt Q92731, whole entry: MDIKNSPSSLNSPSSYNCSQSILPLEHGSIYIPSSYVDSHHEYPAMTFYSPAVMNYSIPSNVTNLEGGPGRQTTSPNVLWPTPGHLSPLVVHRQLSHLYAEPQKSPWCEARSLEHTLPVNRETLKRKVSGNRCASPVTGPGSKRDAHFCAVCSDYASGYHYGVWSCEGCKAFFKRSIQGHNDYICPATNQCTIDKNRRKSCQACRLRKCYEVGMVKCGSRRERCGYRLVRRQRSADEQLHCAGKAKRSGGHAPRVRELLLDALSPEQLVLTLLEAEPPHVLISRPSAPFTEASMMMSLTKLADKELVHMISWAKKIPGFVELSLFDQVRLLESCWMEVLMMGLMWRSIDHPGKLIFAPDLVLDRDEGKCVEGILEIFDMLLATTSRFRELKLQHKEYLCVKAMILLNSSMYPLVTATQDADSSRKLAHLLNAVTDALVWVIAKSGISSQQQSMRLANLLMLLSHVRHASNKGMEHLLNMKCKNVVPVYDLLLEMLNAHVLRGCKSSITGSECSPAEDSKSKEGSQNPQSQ
UniProt P03372, whole entry: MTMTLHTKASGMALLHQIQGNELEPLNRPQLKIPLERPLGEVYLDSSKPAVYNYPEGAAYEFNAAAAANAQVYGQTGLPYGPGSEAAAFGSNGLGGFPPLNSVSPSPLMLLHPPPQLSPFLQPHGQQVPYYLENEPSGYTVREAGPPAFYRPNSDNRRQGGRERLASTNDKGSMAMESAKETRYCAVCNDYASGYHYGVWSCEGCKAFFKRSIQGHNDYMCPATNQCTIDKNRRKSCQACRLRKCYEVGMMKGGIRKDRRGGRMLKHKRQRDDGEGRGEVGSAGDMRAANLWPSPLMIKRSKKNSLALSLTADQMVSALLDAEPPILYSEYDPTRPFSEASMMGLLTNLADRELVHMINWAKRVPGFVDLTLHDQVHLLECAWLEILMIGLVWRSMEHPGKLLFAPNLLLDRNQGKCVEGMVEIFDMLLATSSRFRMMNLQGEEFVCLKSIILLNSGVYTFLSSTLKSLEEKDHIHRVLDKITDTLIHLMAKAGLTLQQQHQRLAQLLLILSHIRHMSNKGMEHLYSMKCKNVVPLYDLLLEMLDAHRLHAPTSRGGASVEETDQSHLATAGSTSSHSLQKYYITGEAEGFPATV

Test [1] deals with Estrogen receptor beta (Homo sapiens, UniProt Q92731). The experiment in a line: Displacement of [3H]-estradiol from full length human ERbeta expressed in insect cells after 18 to 24 hrs by radiometric method relative to estradiol. On the technique in general: Loss of bound radioactivity is the signal in a displacement assay; it reports binding, not function.
The species entered for test [2] is Homo sapiens. The experiment in a line: Selectivity ratio of IC50 for full length human ERalpha expressed in insect cells to IC50 for full length human ERbeta expressed in insect cells.
Test [3] addresses Estrogen receptor (Homo sapiens, UniProt P03372). The experiment in a line: Displacement of [3H]-estradiol from full length human ERalpha expressed in insect cells after 18 to 24 hrs by radiometric method relative to estradiol.

As to `Cc1c(-c2ccc(O)cc2Cl)c(=O)oc2cc(O)ccc12`, the relative binding affinity (RBA) was 0.013 in test [1] and 0.025 in test [3]. Besides, the Ratio IC50 in test [2] was determined as 1.92.

For `CCc1c(-c2ccc(O)cc2Cl)c(=O)oc2cc(O)ccc12`, the results for the relative binding affinity (RBA) in test [1] and in test [3] were 0.817 and 1.93, respectively. In test [2], the Ratio IC50 stood at 2.36.

In the case of `CCc1c(-c2ccc(O)c(F)c2)c(=O)oc2cc(O)ccc12`, the relative binding affinity (RBA) was 0.102 in test [1] and 0.158 in test [3]. Also, the Ratio IC50 in test [2] was 1.54.

Turning to `O=c1oc2cc(O)ccc2cc1-c1ccc(O)c(F)c1`, the relative binding affinity (RBA) was found to be 0.09 in test [1] and 0.02 in test [3]. In test [2], the Ratio IC50 was determined as 0.22.

On to `O=c1oc2cc(O)ccc2c(-c2ccc(O)c(F)c2)c1-c1ccc(O)c(F)c1`, for which the relative binding affinity (RBA) was determined as 1.97 in test [1] and 3.23 in test [3]. For the same compound, the Ratio IC50 in test [2] stood at 1.63.

Turning to `Cc1cc(O)ccc1-c1c(C)c2ccc(O)cc2oc1=O`, the relative binding affinity (RBA) in test [1] was 0.017; in test [3], 0.064. Moreover, the Ratio IC50 in test [2] is 3.76.

Regarding `O=c1oc2cc(O)ccc2cc1-c1ccc(O)cc1`, the figures for the relative binding affinity (RBA) in test [1] and in test [3] were 0.08 and 0.025, respectively. For the same compound, the Ratio IC50 in test [2] came out at 0.31.
